Values of other authors as cited in patent US20220106275A1, “RADIOLABELED COMPOUNDS AND USES THEREOF” (The Trustees of Columbia University in the City of New York, priority 2019, published 2022).

Tested on: COX-2 positive cells (HCA-7)
Details: cited from earlier work

## CS(=O)(=O)c1ccc(-c2cc(C(F)(F)F)nc(NCc3ccc([18F])cc3)n2)cc1 [[^18F]Pyricoxib]
  binding in COX-2 positive cells (HCA-7) compared with COX-2 negative cells (HCT-116): higher binding
